AlphaSeq binding of Ab-95 light chain variants to a spike HR2 peptide

Source: Engelhart et al. 2022 (doi:10.1038/s41597-022-01779-4), MIT Lincoln Laboratory and A-Alpha Bio; data file from the FLAb repository.

The target is the same throughout: PDVDLGDISGINAS, from the HR2 region of SARS-CoV-2 spike.

The variants keep the heavy chain, the linker and the frameworks of Ab-95 (scFv order VH, a 15-residue (Gly4Ser)3 linker, VL).
VH: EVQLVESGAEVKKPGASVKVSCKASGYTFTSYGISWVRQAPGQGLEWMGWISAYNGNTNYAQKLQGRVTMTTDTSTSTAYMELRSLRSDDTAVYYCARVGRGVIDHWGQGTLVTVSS
VL: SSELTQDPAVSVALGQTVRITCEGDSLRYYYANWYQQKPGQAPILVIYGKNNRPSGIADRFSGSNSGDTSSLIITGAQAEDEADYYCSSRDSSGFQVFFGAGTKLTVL

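Phage display of a naive human antibody library on the peptide gave the parent. AAYL52 was designed without a model: most single CDR substitutions and a random sample of double and triple ones. AlphaSeq pools MATa yeast showing the antibodies with MATalpha yeast showing the peptide. After mating in shaken culture at 30 °C for 16 h, diploids were selected and their barcode pairs sequenced. Read counts were normalised to the haploid input and turned into Kd by a linear fit to BCL2-family pairs of known affinity, for each replicate. Each pool was mated in three replicate cultures.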

Substitutions are numbered in sequence along the VL above, starting at 1 (not Kabat). Numbers give log10(Kd / nM), so 0 is 1 nM and 3 is 1 µM. Smaller is tighter. The mean shown is taken over the replicates in which the pair was detected. An entry "ND" has no value in the source: the pair was not observed among the diploids in that replicate. This suggests poor binding but is not conclusive. Three control strains display no target. For library AAYL52, 28% of the pairings with them gave a signal, with a median of 3.91 and one signal in twenty below 2.90, so weak values seen in few replicates may be background. The control count says in how many pairings with the empty strains this scFv gave a signal, with their mean in brackets.

| changes | replicates, log10 nM | mean, log10 nM | signal with controls |
|---|---|---|---|
| S26N+R28H+G49H | 4.89 / 4.23 / ND | 4.56 | 4 of 9 (3.68) |
| Y30V+S88K+Q96I | 2.25 / 1.89 / 1.43 | 1.86 | 4 of 9 (3.55) |
| R53S+S93N | 3.11 / 2.95 / 3.04 | 3.03 | 4 of 9 (3.95) |
| G49C+K50A+S92Y | ND / 3.54 / ND | 3.54 | 0 of 9 |
| E23Y+S26L+S92P | ND / ND / ND | ND | 4 of 9 (3.37) |
| A32M+D91H+V97C | 3.48 / 4.57 / ND | 4.03 | 5 of 9 (4.04) |
| G24P+R90I | 3.49 / ND / 3.88 | 3.69 | 0 of 9 |
| Y29M+N51I+F98P | ND / ND / ND | ND | 0 of 9 |
| Y30D+R53H+S55G | 2.53 / 3.06 / 3.46 | 3.02 | 1 of 9 (5.39) |
| S26N+K50T+N51K | 4.96 / 3.67 / ND | 4.31 | 2 of 9 (3.72) |
| R28F+S55K+F95D | ND / 4.52 / ND | 4.52 | 2 of 9 (4.54) |
| G24Q+K50V+S55P | ND / ND / 2.57 | 2.57 | 5 of 9 (3.57) |
| D91K+G94L+F98Y | ND / ND / ND | ND | 0 of 9 |
| E23I+Y29K+Y31G | 2.51 / 2.04 / 2.74 | 2.43 | 2 of 9 (3.25) |
| Y31W+R90W+D91A | 3.32 / 4.71 / 3.76 | 3.93 | 2 of 9 (4.13) |
| K50A+P54H+S88P | ND / ND / 4.58 | 4.58 | 4 of 9 (3.39) |
| R53C+S55V+S89R | ND / ND / ND | ND | 0 of 9 |
| P54D+S55R+S92E | 3.50 / 4.16 / 3.35 | 3.67 | 0 of 9 |
| D25Q+S55A+D91G | 3.36 / 2.99 / 2.23 | 2.86 | 1 of 9 (4.55) |
| G24N+Y31S+R53E | ND / 5.47 / 5.01 | 5.24 | 4 of 9 (4.55) |
| R28S+P54D+G94C | 2.77 / 3.94 / ND | 3.35 | 1 of 9 (3.77) |
| E23S+Y30A+A32V | 0.91 / 0.69 / 0.47 | 0.69 | 2 of 9 (4.33) |
| G24Y+Y29L+V97M | ND / 3.77 / ND | 3.77 | 4 of 9 (3.88) |
| S92H+S93F+V97M | 1.97 / 2.35 / 2.09 | 2.14 | 1 of 9 (4.23) |
| N52D+S88N+F98G | 2.77 / 2.32 / 2.23 | 2.44 | 6 of 9 (3.96) |
| G49I+N51P+N52D | 5.53 / 5.12 / ND | 5.33 | 2 of 9 (3.95) |
| N33H+Q96H | 3.98 / 3.43 / ND | 3.70 | 2 of 9 (3.78) |
| S26W+N52R+S88H | 4.22 / ND / 4.30 | 4.26 | 5 of 9 (4.14) |
| Y29G+N33Y+P54Y | ND / ND / 4.37 | 4.37 | 2 of 9 (3.07) |
| S26F+N33A | 4.36 / 3.13 / 4.40 | 3.96 | 1 of 9 (2.79) |
| R28G+P54D+D91N | 4.72 / 4.42 / ND | 4.57 | 1 of 9 (3.33) |
| D25L+Y31K+R90V | 2.96 / ND / ND | 2.96 | 4 of 9 (4.27) |
| G49F+D91V+Q96K | 4.11 / ND / ND | 4.11 | 3 of 9 (4.70) |
| L27K+V97L+F98T | ND / ND / ND | ND | 0 of 9 |
| R28A+V97N | 3.54 / 4.58 / ND | 4.06 | 3 of 9 (3.24) |
| D25P+N33K+N51Q | 4.49 / ND / 4.33 | 4.41 | 2 of 9 (3.99) |
| G24F+L27R+V97S | ND / 3.20 / ND | 3.20 | 1 of 9 (3.11) |

From the list, the first 3 with no signal in any replicate:

| changes | replicates, log10 nM | mean, log10 nM | signal with controls |
|---|---|---|---|
| E23Y+S26L+S92P | ND / ND / ND | ND | 4 of 9 (3.37) |
| Y29M+N51I+F98P | ND / ND / ND | ND | 0 of 9 |
| D91K+G94L+F98Y | ND / ND / ND | ND | 0 of 9 |

For reference, the parent read 2.31 as the reference entry and 2.25 as a member of this library.